Values quoted from earlier work in patent US10849956B2, “Glycopeptide compositions” (priority 2014, dated 2020).

Tests used:
Conditions in all cases: referent QC range according to the CLSI protocol; cited from earlier work
[1] = system: Enterococcus faecalis ATCC 29212
[2] = system: Staphylococcus aureus ATCC 29213
[3] = system: Streptococcus pnemoniae ATCC 49619

CC1(C)S[C@@H]2[C@H](NC(=O)[C@H](N)c3ccc(O)cc3)C(=O)N2[C@H]1C(=O)O [Amoxicillin USP standard, Amoxicillin]
CLSI range / Referent MIC ranges (μg/mL), Enterococcus faecalis ATCC 29212 [1]: (0.5-2) μg/mL | CLSI range / Referent MIC ranges (μg/mL), Staphylococcus aureus ATCC 29213 [2]: (0.5-2) μg/mL | CLSI range / Referent MIC ranges (μg/mL), Streptococcus pnemoniae ATCC 49619 [3]: (0.03-0.125) μg/mL
